From patent US20250289804A1, “SUBSTITUTED INDOLE COMPOUNDS AND METHODS OF USE THEREOF” (NOVARTIS PHARMA AG, priority 2021, published 2025)

Chains of the proteins cited; added tags and fusions are not shown. Residues count along the entry.
UniProt P00751, 260-764: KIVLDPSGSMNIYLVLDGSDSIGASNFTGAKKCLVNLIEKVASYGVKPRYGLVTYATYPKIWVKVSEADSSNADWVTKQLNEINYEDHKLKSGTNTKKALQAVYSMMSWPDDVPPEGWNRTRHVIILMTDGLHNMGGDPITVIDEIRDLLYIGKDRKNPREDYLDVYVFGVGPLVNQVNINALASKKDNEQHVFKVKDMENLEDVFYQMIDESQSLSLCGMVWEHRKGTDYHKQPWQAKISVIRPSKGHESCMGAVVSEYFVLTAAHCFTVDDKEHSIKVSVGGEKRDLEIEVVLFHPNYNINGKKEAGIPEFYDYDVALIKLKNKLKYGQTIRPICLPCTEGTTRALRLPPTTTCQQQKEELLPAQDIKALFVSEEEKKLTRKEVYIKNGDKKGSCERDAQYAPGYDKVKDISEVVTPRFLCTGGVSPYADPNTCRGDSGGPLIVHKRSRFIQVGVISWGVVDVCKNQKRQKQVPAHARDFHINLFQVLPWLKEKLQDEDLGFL

Molecular target: human C3bBb (Homo sapiens (Human), UniProt P00751)
Assay: Human C3bBb enzyme assay (C3a generation from C3, ELISA)
Assay type: biochemical
Details: starred values: assay conducted with 1 nM C3b:Bb enzyme
Experimental: Compounds disclosed herein were evaluated for their potency to inhibit human C3bBb in a biochemical assay. To generate active C3bBb complex in vitro, purified human C3b (Complement Technology, A114), CFB (Complement Technology, A135) and CFD (Complement Technology, A136) were mixed in a 1:1:1 ratio to a final concentration of 1 μM each in the C3bBb assay buffer (PBS pH 7.4, 100 μM NiCl2, 0.05% (w/v) CHAPS). The reaction mix was incubated at room temperature for 30 minutes on a rotating platform. […] On the day of the enzyme assay, a reaction mixture containing 3 nM C3bBb complex and 1 μM purified human C3 (Complement Technology, A113) was prepared in the C3bBb assay buffer. Compounds were serial diluted 3-fold in 100% DMSO for a 10-point dose-response curve. A 0.5 μL aliquot of diluted compound solution was transferred to a conical bottom 96-well plate, before 49.5 μL of the reaction mix was added to each well to initiate the reaction. The plate was incubated for 1 hour at room temperature. […] The generation of C3a from C3 by the C3bBb complex was measured using the MicroVue C3a Plus EIA ELISA kit (Quidel, A031). The concentration of C3a from each well was calculated using a standard curve. Percent inhibition values were generated using the baseline (C3 only) and the maximum control (DMSO instead of compound), and IC50 of each compound was calculated using 4-parameter logistic regression.

SMILES: COc1cc(C)c2[nH]ccc2c1CN1CC[C@H](C2CC2)C[C@H]1c1ccc(C(=O)O)cc1 [Example 41, 4-((2S,4S)-4-cyclopropyl-1-((5-methoxy-7-methyl-1H-indol-4-yl)methyl)piperidin-2-yl)benzoic acid]
- IC50: < 10 nM
